Values of other authors as cited in publication PMC4109288 (Lancet, 2012).

Tested on: mutant BRAF
Conditions: kinase panel screening, cell lines, and xenografts; cited from earlier work

Compound: CC(C)(C)c1nc(-c2cccc(NS(=O)(=O)c3c(F)cccc3F)c2F)c(-c2ccnc(N)n2)s1 [dabrafenib, Dabrafenib]
- Selectivity for mutant BRAF: highly selective for mutant BRAF
